Laboratory results published in article PMC6027421 (Pharmaceuticals, 2018).
Like-named read-outs stand apart in the source and are kept apart here. One block for each molecule: values may come before it.

By UniProt entry, the sequences of proteins in these tests, tags left out.
UniProt P05093, whole entry V366M: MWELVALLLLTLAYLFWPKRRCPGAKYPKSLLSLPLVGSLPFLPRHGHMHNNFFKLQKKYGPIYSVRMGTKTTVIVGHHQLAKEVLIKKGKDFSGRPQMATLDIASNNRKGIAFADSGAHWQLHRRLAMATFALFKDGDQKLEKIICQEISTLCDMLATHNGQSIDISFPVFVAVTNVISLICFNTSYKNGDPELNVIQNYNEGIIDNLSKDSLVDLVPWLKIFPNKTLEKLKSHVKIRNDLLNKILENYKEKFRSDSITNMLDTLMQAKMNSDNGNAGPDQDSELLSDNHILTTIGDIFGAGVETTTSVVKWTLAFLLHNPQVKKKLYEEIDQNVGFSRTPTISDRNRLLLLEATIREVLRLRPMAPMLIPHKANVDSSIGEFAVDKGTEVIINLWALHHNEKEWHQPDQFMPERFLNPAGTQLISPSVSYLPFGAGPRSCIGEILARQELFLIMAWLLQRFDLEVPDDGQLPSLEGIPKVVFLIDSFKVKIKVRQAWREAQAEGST

How the values were obtained:
CYP17A1_V366M [1] = target: T1, CYP17A1_V366M (Homo sapiens, UniProt P05093, V366M); format: binding; conditions: for Kd: spectral binding, 50 nM protein, 22 °C; for Binding to V366M mutant (spectral): result in words
CYP17A1_V366M [2] = target: T1, CYP17A1_V366M; experiment: biochemical
CYP17A1_V366M [3] = target: T1, CYP17A1_V366M; conditions: result in words; 17OH-PREG range 0–100 µM
CYP17A1-V366M = tested on: T2, CYP17A1-V366M; experiment: 17,20 lyase assay (17OH-PREG to DHEA), V366M CYP17A1; format: biochemical, human
T2 construct: (His)4; made in house; host or cells: E. coli JM109

Kd (CYP17A1_V366M [1]): 92 ± 15 nM
IC50 (CYP17A1_V366M [2]): 1400 ± 200 nM
Structure (SMILES): CC(=O)[C@H]1CC[C@H]2[C@@H]3CC=C4C[C@@H](O)CC[C@]4(C)[C@H]3CC[C@]12C [PREG, pregnenolone]

Structure (SMILES): c1c[nH]cn1 [imidazole]
Binding to V366M mutant (spectral) (CYP17A1_V366M [1]): could bind

Structure (SMILES): CC(=O)[C@H]1CC[C@H]2[C@@H]3CCC4=CC(=O)CC[C@]4(C)[C@H]3CC[C@]12C [PROG, Progesterone]
Vmax, 17α-Hydroxylase PROG to 17OH-PROG (CYP17A1 V366M; PROG as substrate): 0.42 min⁻¹
Km (CYP17A1 V366M; read-out: Km, 17α-Hydroxylase PROG to 17OH-PROG, PROG as substrate, CYP17A1:POR 1:2, 37 °C): 8.4 ± 0.9 µM
Cat Eff, 17α-Hydroxylase PROG to 17OH-PROG (CYP17A1 V366M; relative to WT): 43%
Kd (CYP17A1_V366M [1]): 287 ± 35 nM

Structure (SMILES): CC(=O)[C@@]1(O)CC[C@H]2[C@@H]3CC=C4C[C@@H](O)CC[C@]4(C)[C@H]3CC[C@@]21C [17OH-PREG, 17α-hydroxypregnenolone]
Inhibition of 17α-hydroxylation of PROG by V366M mutant (CYP17A1_V366M [3]): no inhibition
17,20 lyase activity with 17OH-PREG as substrate (CYP17A1-V366M): no activity
Binding to V366M mutant (spectral) (CYP17A1_V366M [1]): not observed

Binding to V366M mutant (spectral) (CYP17A1_V366M [1]): this binding pattern was not observed
Binding to V366M mutant (spectral) (CYP17A1_V366M [1]; listed as abiraterone): no binding was observed
Structure (SMILES): C[C@]12CC[C@H](O)CC1=CC[C@@H]1[C@@H]2CC[C@]2(C)C(c3cccnc3)=CC[C@@H]12 [Abiraterone, abiraterone]
